How the values were obtained:
[1] = test system: GCE-induced allergic asthma animal model; test: H&E lung tissue observation and airway epithelial thickness, comparison with CTLA4-Ig (Test Example 5); type: in vivo, BALB/c mice; details: 10 μg intranasal together with GCE
[2] = test system: OVA (ovalbumin)-induced asthma animal model; details: intravenous or intraabdominal injection; cited from earlier work
IL-13, IL-4 and IFN-γ = test: Cytokine expression by ELISA in bronchoalveolar lavage and lung tissues, comparison with CTLA4-Ig (Test Example 5); type: in vivo, BALB/c mice; details: 10 μg intranasal together with GCE
Description: The […] obtained by the method of 5) was homogenized using the T-PER tissue protein extraction reagent (Thermo Fisher Scientific, MA, US) to prepare a suspension. The suspension was incubated at 4° C. for 30 minutes and then centrifuged at 2500 rpm for 10 minutes. The supernatant was filtered with a 0.45-μm filter to analyze cytokine expression levels.
The mice reared according to 1) of Experimental methods were used. Specifically, 120 μg of GCE prepared according to 2) of Experimental methods was intranasally administered to the 8-week-old BALB/c mice twice a week for 3 weeks. 10 μg of dNP2-ctCTLA-4 (Example 2), CTLA4-Ig (Comparative Example 4) or a vehicle (PBS) was intranasally administered together when the GCE was administered to the mice.
15 minutes after the experiment was completed, a bronchoalveolar lavage fluid (BALF) was obtained by injecting 1 mL of PBS twice to each animal (see 5) of Experimental methods).
The concentration of IL-13, IL-4 and IFN-γ was analyzed with the ELSISA kit and the result was normalized to the total protein concentration of the tissue. The protein concentration was quantified by the Bradford assay. n=5 per each group and the results are presented as mean±s.e.m. (standard error of mean). *p<0.05, **p<0.01.

For “Abatacept [CTLA4-Ig, reference compound]”, the “physiological features of the respiratory epithelium: cell infiltration and airway epithelium thickening (H&E)” value [1] is given as “no inhibition of cell infiltration and airway epithelium thickening”, the “suppression of allergic airway inflammation (eosinophil infiltration, Th2 cytokine expression, serum IgE)” value [2] is given as “effective in suppressing allergic airway inflammation” and the “cytokine production as compared to the control group (sham)” value (IL-13, IL-4 and IFN-γ) is given as 3 times.

Reference: patent US20200023036A1, “PHARMACEUTICAL COMPOSITION FOR PREVENTING OR TREATING INFLAMMATORY RESPIRATORY DISEASE CONTAINING FUSION PROTEIN IN WHICH CELL-PENETRATING PEPTIDE AND CTCTLA4 PEPTIDE ARE FUSED AS ACTIVE INGREDIENT” (IUCF-HYU (INDUSTRY-UNIVERSITY COOPERATION FOUNDATION HANYANG, priority 2017, published 2020)
